The entries are a selection whose mix differs from that of the whole data set. Inconclusive results are not listed. Calls of active or inactive are those of the source. Calls follow the shape of the dose curve; as a rule, active = well fitted inhibition curve with a large enough effect (not every such curve was filed as active); inconclusive = small, poorly fitted or top-dose-only effect, or another doubt; inactive = no such curve, though single readings can be large or run the other way.
Potency is read from the fitted curve at half-maximal effect.

Sequences of proteins named here, by UniProt entry; tags and fusion partners are left off. A change or cut given only in a name is not applied to a line headed by its entry.
UniProt P15428: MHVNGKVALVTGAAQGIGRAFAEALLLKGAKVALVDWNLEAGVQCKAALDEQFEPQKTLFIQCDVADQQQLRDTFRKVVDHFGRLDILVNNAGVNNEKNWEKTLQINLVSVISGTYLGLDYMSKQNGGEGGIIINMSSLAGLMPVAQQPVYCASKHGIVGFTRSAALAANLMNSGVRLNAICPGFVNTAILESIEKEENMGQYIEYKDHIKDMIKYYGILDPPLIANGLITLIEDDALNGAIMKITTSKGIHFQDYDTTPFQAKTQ

The target in the experiment is 15-hydroxyprostaglandin dehydrogenase [NAD(+)] (Homo sapiens) (UniProt P15428). Kind of experiment: qHTS Assay for Inhibitors of HPGD (15-Hydroxyprostaglandin Dehydrogenase). As to conditions: purified HPGD, NADH fluorescence kinetic, PGE2 substrate.
Take `N#Cc1ccccc1CSc1nc2ncc(Br)cc2[nH]1`: the Potency is active: 0.224 µM. As for `CC1(COc2ccc(C[C@H]3SC(=O)NC3=O)cc2)CCCCC1`, the Potency is active: 4.47 µM.

These data come from PubChem BioAssay AID894 (National Center for Advancing Translational Sciences (NCATS), 2007).
